{"sequences": {"note": "Protein sequences, listed by entry. Tags and fused reporters are not part of them.", "UniProt O34453, whole entry": "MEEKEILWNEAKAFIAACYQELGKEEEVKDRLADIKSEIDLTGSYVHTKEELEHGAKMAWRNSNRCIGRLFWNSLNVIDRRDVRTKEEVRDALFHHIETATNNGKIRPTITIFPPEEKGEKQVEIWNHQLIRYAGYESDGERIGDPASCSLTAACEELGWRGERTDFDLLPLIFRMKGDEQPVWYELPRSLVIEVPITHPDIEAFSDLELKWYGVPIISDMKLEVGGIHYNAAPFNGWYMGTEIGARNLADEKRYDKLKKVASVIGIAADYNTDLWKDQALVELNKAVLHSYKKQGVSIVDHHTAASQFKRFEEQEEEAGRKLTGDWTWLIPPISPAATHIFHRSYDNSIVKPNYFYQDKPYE"}, "source": "patent US12213973B2", "about": "“Bacterial nitric oxide synthase inhibitors” (Northwestern University, priority 2021, dated 2025)", "target": "bNOS (Bacillus subtilis, UniProt O34453)", "assay": "Thermodynamic profiling (Kd) with bNOS", "format": "binding", "conditions": "read-out: dissociation constant (Kd) with bNOS active site, FIG. 3"}
{"smiles": "CNCc1cccc(OCc2ccc3ccc(N)nc3c2)c1", "values": [{"measurement": "Kd", "value": 5.25, "unit": "µM"}]}
